Measurements reported in US6316644A, “Pilyethoxylated retinamide derivatives and process for preparing the same” (LG Chemical Ltd., priority 1998, dated 2001).

Assays:
auricular lymph node = conditions: mouse, in vivo
Procedure: Toxicol. 10(3); 173-180]. […] Each of the test sample was applied to both ears of Blab/c mouse in an amount of 50μl for 3 days and then auricular lymph node was isolated from mouse. Lymph node was micronized to monocellular state and then incubated for 24 hours with addition of radioisotope (^3 H-thymidine).

skin = conditions: guinea pig, in vivo
Procedure: Assoc. Food and Drug Officials, US. Appraisal of the safety of chemicals in Food, Drugs and Cosmetics, pp46-59, Texas State Dept. of Health, Austin, Tex. and 2 Federal Register (1973): Method of testing primary irritant substances 38(187): pp1500-1541]. Six kinds of the test solutions were prepared at the concentration of 0.3% by using o/w formulation or Lexol GT-865 as the carrier vehicle. First, hair was removed from the portion (dorsal skin of mouse) for applying the test solution and then the naked portion was adapted to the environmental circumstance for 24 hours in order to minimize the skin irritability. The test solution and gauze were applied to the established portion (1.5 cm×1.5 cm) for applying the test solution, which was then sealed with the solid thin film and fixed with the elastic bandage for 48 hours in order to inhibit the evaporation and loss of the test sample. After 2 and 24 hours from removal of the closed patch (i. e. 50 and 72 hours after patch application, respectively), the degree of irritation was determined.

[1] = pH 7.4
[2] = system: skin of 9-weeks aged naked female mouse

polyethoxylated retinamide of formula (I) (R=methyl, n=9.8)
allergy induction in comparison to ethanol (auricular lymph node): three times and below | difference between the irritation degrees (skin): no significant difference | Receptor solution (amount absorbed) [1]: 62.72 nmol | Degree of irritation [2]: 0.27 | Safety [2]: weak irritation | irritation [2]: weak irritation
